Laboratory results reported in patent US20260382479A1, “COSMETIC USE OF A COMPOSITION FOR CARING FOR KERATIN MATERIALS COMPRISING AT LEAST INDOLE-3-ACETAMIDE” (published 2026).

Legend:
TSLP [1] = assay: TSLP production in culture supernatant of cocktail-stimulated RHE-shFLG (atopic dermatitis model); settings: IALD, I3A 10 μg/ml, FICZ 100 ng/ml, 48 h after stimulation, Poly(I:C) + IL-4 + IL-13 + TNF
Method: (§1) The reconstructed epidermis rests on an inert non-submerged polycarbonate surface of 0.5 cm^2, and is cultured on cell culture medium (Episkin). In our study, the RHEs are produced using filaggrin (FLG)-deficient keratinocytes. […] This FLG-deficient line was generated using a short hairpin RNA that targets FLG (shFLG). The use of the RHE-shFLG in a 3D RHE model has been published (see Madiedo-Podvrsan et al., Sci Rep. 2021 Mar. 18; 11(1):6217).
(§2) In order to produce a phenotype similar to that observed in atopic dermatitis patients in terms of chemokines produced and histology, it is necessary to stimulate the RHEs using a cocktail composed of: • Polyinosinic-polycytidylic acid (Poly (I:C)) (Reference P9582, Sigma) at 10 μg/ml; • Interleukin 4 (IL-4) (Reference BMS337, Invitrogen) and Interleukin 13 (IL-13) (Reference 213-ILB, R&D Systems) at 50 ng/ml; and • TNF (Tumour necrosis factor Reference 210-TA/CF, R&D Systems) at 10 ng/ml. […]
(§3) The inflammatory cocktail as defined above, and also the various molecules to be tested (I3A, IALD and FICZ), are added simultaneously to the suitable cell culture medium, in which the RHEs are placed. […] The culture supernatant is then recovered, and the various chemokines are measured (kits in Table 1 below). […] The expression of the target genes (Table 1 below) is measured by qPCR.
(§4) All experiments were performed with at least three biological replicates. […] The data was analysed with the one-way ANOVA test followed by Dunnett's multi-comparison test. […]
The metabolites alone are unable to induce TSLP or the various chemokines measured. Stimulation of the shFLG model by the (Poly(I:C), TNFa, IL-13, IL-4) cocktail as mentioned above results in TSLP production which is on average 10 times greater, and between 20 to 30 times greater for the other chemokines measured, than the control conditions in the culture supernatant.
The results in Table 2 below are expressed as percentage difference relative to the stimulated control in the RHE shFLG model. […]

TRAIL = TRAIL production in culture supernatant of cocktail-stimulated RHE-shFLG (atopic dermatitis model); settings: IALD, I3A 10 μg/ml, FICZ 100 ng/ml, 48 h after stimulation, Poly(I:C) + IL-4 + IL-13 + TNF
Method: as §1, §2, §3, §4
The results in Table 2 below are expressed as percentage difference relative to the stimulated control in the RHE shFLG model.
This Table 2 represents the percentage of the level of expression of TSLP and TRAIL (tumour necrosis factor-related apoptosis-inducing ligand) relative to the stimulated control in the RHE culture medium 48 h after stimulation. The p-values are calculated with respect to the stimulated control.

Cyp1a1 = assay: qPCR expression of Cyp1a1 in cocktail-stimulated RHE; settings: for Cyp1a1 gene expression (qPCR), mean: I3A 10 μg/ml, FICZ 100 ng/ml, cocktail-stimulated RHE, 48 h, Stim mean 0.99; for induction of the Cyp1a1 pathway (in words): keratinocytes, "as shown in the examples below"
Method: as §1
In order to produce a phenotype similar to that observed in atopic dermatitis patients in terms of chemokines produced and histology, it is necessary to stimulate the RHEs using a cocktail composed of: • Polyinosinic-polycytidylic acid (Poly (I:C)) (Reference P9582, Sigma) at 10 μg/ml; • Interleukin 4 (IL-4) (Reference BMS337, Invitrogen) and Interleukin 13 (IL-13) (Reference 213-ILB, R&D Systems) at 50 ng/ml; and • TNF (Tumour necrosis factor Reference 210-TA/CF, R&D Systems) at 10 ng/ml.
Simultaneous bringing into contact with the various molecules to be tested: • IALD ref: 129445, Sigma: stock solution 10 mg/ml in DMSO diluted in the RHE (Episkin) culture medium to the final concentration of 10 μg/ml; • FICZ ref: SML1489, Sigma: stock solution 0.5 mg/ml in DMSO diluted in the RHE (Episkin) culture medium at the final concentration of 100 ng/ml; and • I3A ref: 286281, Sigma: stock solution 10 mg/ml in DMSO diluted in the RHE (Episkin) culture medium to the final concentration of 10 μg/ml. Measuring the Chemokines in the Culture Supernatant, and qPCR
(§5) The inflammatory cocktail as defined above, and also the various molecules to be tested (I3A, IALD and FICZ), are added simultaneously to the suitable cell culture medium, in which the RHEs are placed. The culture plates are then incubated at 37 °C for 48 hours. The culture supernatant is then recovered, and the various chemokines are measured (kits in Table 1 below). The RHEs are milled using ceramic beads and the RNA is extracted according to the manufacturer's instructions (kits in the table below). The expression of the target genes (Table 1 below) is measured by qPCR.
All experiments were performed with at least three biological replicates. The data is presented in the form of mean±SEM. GraphPad Prism (version 7.0; GraphPad Software, La Jolla, California). The data was analysed with the one-way ANOVA test followed by Dunnett's multi-comparison test. The results are considered to be statistically significant when p<0.05.
(§6) qPCRs were performed to examine the expression of certain target genes induced in the context of the AhR pathway following stimulation with the cocktail that mimics certain phenotypes of atopic dermatitis, as defined above.

Nrf2 = assay: qPCR expression of Nrf2 in cocktail-stimulated RHE; settings: I3A 10 μg/ml, FICZ 100 ng/ml, 48 h, Stim mean 0.81
Method: as §1, with “11(1):6217). […]” for “11(1):6217).”
as §3, §4

Nqo1 = assay: qPCR expression of Nqo1 in cocktail-stimulated RHE; settings: I3A 10 μg/ml, FICZ 100 ng/ml, 48 h, Stim mean 1.17
Method: as §1, with “11(1):6217). […]” for “11(1):6217).”
as §3, §4

Hmox1 = assay: qPCR expression of Hmox1 in cocktail-stimulated RHE; settings: I3A 10 μg/ml, FICZ 100 ng/ml, 48 h, Stim mean 3.42
Method: as §1, with “11(1):6217). […]” for “11(1):6217).”
as §3, §4

[2] = test system: stratum corneum of the RHE epidermis; assay: Stratum corneum thickness of RHE epidermis (H&E histology, DHisTo-Skin software); settings: I3A 10 μg/ml; FICZ 100 ng/ml; cocktail-stimulated RHE, 48 h; non-stimulated control 19.88, stimulation 14.07
Method: as §1, with “11(1):6217). […]” for “11(1):6217).”
(§7) 48 h after culturing the RHEs under the different stimulation conditions, the tissues are fixed in 4% paraformaldehyde (w/v), pH 6.9 (Carlo Erba Reagents, France) and kept at 4 °C for 24 to 48 h. […] The slides are scanned using a Nanozoomer S60 (Hamamatsu, Japan) and analyzed using the NDP view software. The images are analyzed with the DHisTo-Skin software (Digital Histological Tools for Skin), using the GeoLower algorithm.
as §4

[3] = test system: undifferentiated/dedifferentiated keratinocytes; assay: Undifferentiated/dedifferentiated keratinocytes in RHE shFLG model (histology); settings: RHE shFLG stimulated with cocktail; data not presented
Method: as §1, §2
as §7, with “algorithm. […]” for “algorithm.”

antioxidant pathways = assay: Antioxidant pathways (Nrf2, Hmox1, Nqo1 expression) under atopic conditions
Method: as §5, §6
Conversely, a weaker induction of Cyp1a1 by I3A is observed in comparison with that by FICZ. Thus, I3A induces fewer adverse effects than FICZ, or even no adverse effects, by limiting the induction of Cyp1a1 and thus the xenobiotic pathway. Induction of the antioxidant pathway is monitored using the expression of the genes Nrf2, Hmox1, and Ngo1. Under atopic conditions, I3A slightly induces the antioxidant pathways.

Cyp1a1 pathway = settings: literature; cited from earlier work
[4] = test system: dermatitis-like mouse model; settings: topical application, Yu et al 2019; cited from earlier work
TSLP [5] = settings: said to be dependent on AhR pathway; cited from earlier work

| SMILES | TSLP production, percentage difference relative to the stimulated control (mean) (TSLP [1]) [%] | TRAIL production, percentage difference relative to the stimulated control (mean) (TRAIL) [%] | Cyp1a1 gene expression (qPCR), mean (Cyp1a1) | induction of the Cyp1a1 pathway (in words) (Cyp1a1) | Nrf2 gene expression (qPCR), mean (Nrf2) | Nqo1 gene expression (qPCR), mean (Nqo1) | Hmox1 gene expression (qPCR), mean (Hmox1) | mean thickness of stratum corneum [2] [μm] | decrease of surface area and/or number of undifferentiated/dedifferentiated keratinocytes (in words) [3] | induction of the antioxidant pathways (in words) (antioxidant pathways) | induction of the Cyp1a1 pathway (in words) (Cyp1a1 pathway) | reduction of skin inflammation (in words) [4] | inhibition of TSLP production in keratinocytes (in words) (TSLP [5]) |
| --- | --- | --- | --- | --- | --- | --- | --- | --- | --- | --- | --- | --- | --- |
| NC(=O)Cc1c[nH]c2ccccc12 | −51.35 | −23.53 | 1.57 | only very weakly induces, or does not induce | 0.46 | 0.5 | 2.45 | 18.07 | able to decrease | slightly induces |  |  |  |
| O=Cc1c2[nH]c3ccccc3c2cc2[nH]c3ccccc3c12 | −39.45 | −64.69 | 11.09 |  | 1 | 1.32 | 4.67 | 16.2 |  |  | strong inducer |  |  |
| O=Cc1c[nH]c2ccccc12 | −42.69 | −7.45 |  | strong inducer |  |  |  |  |  |  |  | reduce skin inflammation | inhibit production of TSLP |
